Assay results taken from patent US9302989B2 (priority 2010, dated 2016).

Amino acid sequences for entries named in this document (tags omitted). A change or cut given only in a name is not applied to a line headed by its entry.
UniProt P43490: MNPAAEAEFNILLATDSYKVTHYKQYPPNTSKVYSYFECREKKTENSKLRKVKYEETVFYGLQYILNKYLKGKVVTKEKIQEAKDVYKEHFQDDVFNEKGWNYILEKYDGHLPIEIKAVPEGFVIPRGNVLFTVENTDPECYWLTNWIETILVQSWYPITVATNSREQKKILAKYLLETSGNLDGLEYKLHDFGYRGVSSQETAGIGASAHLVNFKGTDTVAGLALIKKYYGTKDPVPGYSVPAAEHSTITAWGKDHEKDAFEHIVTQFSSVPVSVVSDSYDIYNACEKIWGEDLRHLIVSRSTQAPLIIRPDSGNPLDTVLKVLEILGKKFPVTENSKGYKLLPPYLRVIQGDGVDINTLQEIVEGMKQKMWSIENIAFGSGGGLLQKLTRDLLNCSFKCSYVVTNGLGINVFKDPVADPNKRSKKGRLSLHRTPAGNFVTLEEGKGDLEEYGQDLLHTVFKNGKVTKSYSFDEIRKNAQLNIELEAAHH

Each molecule was assayed against NAMPT (Homo sapiens (Human), UniProt P43490). Conditions: read-out: TR-FRET Binding IC50 (μM) probe 1.

Row | Structure (SMILES) | IC50
1 | O=C(Nc1cnn(Cc2ccccc2)c1)c1ccc(NC(=O)N2Cc3ccc(F)cc3C2)cc1 [Example 49, N-{4-[(1-benzyl-1H-pyrazol-4-yl)carbamoyl]phenyl}-5-fluoro-1,3-dihydro-2H-isoindole-2-carboxamide] | 0.0186 µM
2 | O=C(Nc1ccc(C(=O)N2CCN(c3ccc(Cl)cn3)CC2)cc1)N1Cc2ccccc2C1 [Example 96, N-(4-{[4-(5-chloropyridin-2-yl)piperazin-1-yl]carbonyl}phenyl)-1,3-dihydro-2H-isoindole-2-carboxamide] | 0.0365 µM
3 | CCCNC(=O)c1ccc(NC(=O)N2Cc3ccc(-c4cn[nH]c4)cc3C2)cc1 [Example 281, N-[4-(propylcarbamoyl)phenyl]-5-(1H-pyrazol-4-yl)-1,3-dihydro-2H-isoindole-2-carboxamide] | 0.0383 µM
4 | O=C(NC[C@H]1CCCO1)c1ccc(NC(=O)N2Cc3ccc(F)cc3C2)cc1 [Example 436, 5-fluoro-N-[4-({[(2R)-tetrahydrofuran-2-ylmethyl]amino}carbonyl)phenyl]-1,3-dihydro-2H-isoindole-2-carboxamide] | 0.00933 µM
5 | O=C(Nc1ccc(C(=O)N2CCN(c3ccccn3)CC2)cn1)N1Cc2ccccc2C1 [Example 368, N-(5-{[4-(pyridin-2-yl)piperazin-1-yl]carbonyl}pyridin-2-yl)-1,3-dihydro-2H-isoindole-2-carboxamide] | 0.00373 µM
6 | O=C(Nc1ccc(C(=O)N2CCC[C@H]2C(F)(F)F)cc1)N1Cc2ccccc2C1 [Example 251, N-(4-{[(2S)-2-(trifluoromethyl)pyrrolidin-1-yl]carbonyl}phenyl)-1,3-dihydro-2H-isoindole-2-carboxamide] | 0.83 µM
7 | O=C(NC1CCCC1)c1ccc(NC(=O)N2Cc3ccccc3C2)cc1 [Example 224, N-[4-(cyclopentylcarbamoyl)phenyl]-1,3-dihydro-2H-isoindole-2-carboxamide] | 0.317 µM
8 | O=C(CC1CC1)Nc1ccc(NC(=O)N2Cc3ccccc3C2)cc1 [Example 310, N-{4-[(cyclopropylacetyl)amino]phenyl}-1,3-dihydro-2H-isoindole-2-carboxamide] | 0.0368 µM
9 | COc1ccc(CNC(=O)c2ccc(NC(=O)N3Cc4ccccc4C3)cc2)cc1 [Example 45, N-{4-[(4-methoxybenzyl)carbamoyl]phenyl}-1,3-dihydro-2H-isoindole-2-carboxamide] | 0.0181 µM
10 | Cc1ccc(C(=O)N2CC=C(c3ccc(NC(=O)N4Cc5ccccc5C4)cc3)CC2)cc1 [Example 432, N-{4-[1-(4-methylbenzoyl)-1,2,3,6-tetrahydropyridin-4-yl]phenyl}-1,3-dihydro-2H-isoindole-2-carboxamide] | 0.00874 µM
11 | O=C(Nc1ccc(N2CCN(C(=O)c3ccccc3)CC2)cc1)N1Cc2ccccc2C1 [Example 336, N-[4-(4-benzoylpiperazin-1-yl)phenyl]-1,3-dihydro-2H-isoindole-2-carboxamide] | 0.0259 µM
